# Source: PubChem BioAssay AID588579 (National Center for Advancing Translational Sciences (NCATS), 2011)
# By UniProt entry, the sequences of proteins in these tests, tags left out. Where a name states a change or a piece, a line headed by the entry shows the natural chain unless it says otherwise.
# UniProt Q9UBT6: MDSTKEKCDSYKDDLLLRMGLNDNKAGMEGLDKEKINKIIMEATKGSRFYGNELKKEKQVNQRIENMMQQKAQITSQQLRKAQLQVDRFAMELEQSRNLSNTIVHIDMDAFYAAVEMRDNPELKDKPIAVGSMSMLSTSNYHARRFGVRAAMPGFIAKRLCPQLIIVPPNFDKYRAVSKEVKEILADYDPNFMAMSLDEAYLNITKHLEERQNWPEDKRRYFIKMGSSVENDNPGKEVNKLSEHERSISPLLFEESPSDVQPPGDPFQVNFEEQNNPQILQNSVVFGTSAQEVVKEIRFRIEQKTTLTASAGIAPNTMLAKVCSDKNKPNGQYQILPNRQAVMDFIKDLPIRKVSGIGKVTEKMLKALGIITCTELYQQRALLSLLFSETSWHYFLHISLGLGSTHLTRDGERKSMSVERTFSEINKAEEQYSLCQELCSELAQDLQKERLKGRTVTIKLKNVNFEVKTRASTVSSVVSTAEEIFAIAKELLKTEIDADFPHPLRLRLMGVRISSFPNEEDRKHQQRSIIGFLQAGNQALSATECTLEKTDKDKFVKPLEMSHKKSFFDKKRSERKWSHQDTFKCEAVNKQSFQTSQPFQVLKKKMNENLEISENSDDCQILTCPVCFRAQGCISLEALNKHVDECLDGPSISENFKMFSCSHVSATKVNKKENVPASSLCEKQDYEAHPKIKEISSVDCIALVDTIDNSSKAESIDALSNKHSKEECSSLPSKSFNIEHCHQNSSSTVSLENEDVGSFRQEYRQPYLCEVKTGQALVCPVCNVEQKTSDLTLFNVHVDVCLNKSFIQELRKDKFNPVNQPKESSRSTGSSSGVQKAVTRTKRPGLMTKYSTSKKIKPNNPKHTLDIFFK
# The list shows a part of the results, in another mix than the full data. Results filed as inconclusive are left out. Activity calls are given as the source filed them. The call rests on the fitted dose curve; in most records, active means well fitted inhibition curve with a large enough effect; inconclusive means small, poorly fitted or top-dose-only effect, or another doubt; inactive means no such curve, though single readings can be large or run the other way.
# Molecular target: DNA polymerase kappa (Homo sapiens) (UniProt Q9UBT6)
# Assay: qHTS for Inhibitors of Polymerase Kappa
# Conditions: purified Pol kappa, fluorescent DNA synthesis assay, 10 min
# Method: The processing and repair of DNA interstrand crosslinks (ICL) in eukaryotic cells are extremely complex, potentially involving multiple DNA repair and damage tolerance pathways, including homologous recombination, nucleotide excision repair, translesion synthesis (TLS), and cell cycle checkpoints.
# To that end, in a collaboration between the Oregon Health & Science University and the NIH Chemical Genomics Center a 1536-well high-throughput screen was developed. This fluorescent screen was assayed against the NIH Molecular Libraries Small Molecule Repository (MLSMR) to discover inhibitors of Pol Kappa.
# NIH Chemical Genomics Center [NCGC]
# NIH Molecular Libraries Probe Centers Network [MLPCN]
# Assay Submitter (PI): Stephen Lloyd, Oregon Health & Science University
# Three microliters of reagents (buffer in column 3 and 4 as negative control and 10 nM Pol kappa in columns 1, 2, and 5-48) were dispensed into a 1536-well black solid-bottom plate. Compounds (23 nL) were transferred via Kalypsys pin tool equipped with 1536-pin array. The plates were then incubated for 15 min at room temperature, and 1 uL substrate (50 nM final concentration) were then added to start the reaction and kinetically read twice at 0 min and 10 min on the Viewlux reader
# On the % scale 0 is the no-effect control and ±100 the full control effect.
structure (smiles),measurement,setting,value
CCOP(=O)(NC(=NC(C)c1ccccc1)NC(C)c1ccccc1)OCC (configuration not stated),"activity, negative = inhibition",at 107 µM (top of the series),inactive: -11.4%
CCC1=CC2Cc3nc4ccc(Cl)cc4c(N)c3C(C1)C2 (configuration not stated),"activity, negative = inhibition",at 107 µM (top of the series),inactive: 1.82%
O=P1(Nc2ccccn2)COc2ccccc2OC1,"activity, negative = inhibition",at 107 µM (top of the series),inactive: -17.2%
CN(CCCl)Cc1cc(Cl)c(NC2=NCCN2)c(Cl)c1,"activity, negative = inhibition",at 19.4 µM (top of the series),inactive: 0.396%
same,"activity, negative = inhibition",at 60.1 µM (top of the series),inactive: -5.51%
same,"activity, negative = inhibition",at 107 µM (top of the series),inactive: -14.5%
CCOP(=O)(Nc1ccc(C)cn1)OCC,"activity, negative = inhibition",at 107 µM (top of the series),inactive: 9.39%
CC(C)(C)C(=O)NC(Sc1ncccn1)C(Cl)(Cl)Cl (configuration not stated),"activity, negative = inhibition",at 107 µM (top of the series),inactive: -12.5%
Clc1n[nH]nc1-c1nn[nH][15n]1,"activity, negative = inhibition",at 107 µM (top of the series),inactive: -3.28%
COc1ccccc1CNC(=O)COC(=O)C(O)(c1ccccc1)c1ccccc1,"activity, negative = inhibition",at 107 µM (top of the series),inactive: -16.7%
CN(C(=O)Cc1ccc(Cl)c(Cl)c1)[C@@H]1CCCC[C@H]1N1CCCC1,"activity, negative = inhibition",at 19.4 µM (top of the series),inactive: -1.43%
same,"activity, negative = inhibition",at 107 µM (top of the series),inactive: -13.9%
CC(C)/C=N\N=C(\N)N[N+](=O)[O-],"activity, negative = inhibition",at 107 µM (top of the series),inactive: -1.97%
CC1(CBr)Cn2c(nc3ccccc3c2=O)S1 (configuration not stated),"activity, negative = inhibition",at 107 µM (top of the series),inactive: -13.5%
COc1cc([N+](=O)[O-])ccc1[N+](=O)[O-],"activity, negative = inhibition",at 107 µM (top of the series),inactive: 8.65%
Cc1ccc(C(=O)OC2CN3CCC2CC3)cc1 (configuration not stated),"activity, negative = inhibition",at 107 µM (top of the series),inactive: 3.26%
CC1CCC(C(C)C)C(OP(=O)(Nc2ccccn2)c2ccccc2)C1 (configuration not stated),"activity, negative = inhibition",at 107 µM (top of the series),inactive: -15.3%
Cc1nn(-c2ccccc2)c2c1P(=O)(N1CCOCC1)N(C)C(c1ccccc1)=N2 (configuration not stated),"activity, negative = inhibition",at 107 µM (top of the series),inactive: -10.8%
CN(C)C1(CNC(=O)c2ccc(S(C)(=O)=O)cc2)CCCCC1,"activity, negative = inhibition",at 107 µM (top of the series),inactive: -4.11%
CCCC1OP(=O)(Nc2ccccc2)OCC1CC (configuration not stated),"activity, negative = inhibition",at 107 µM (top of the series),inactive: -15.3%
O=C(/C=C/c1ccccc1)OC1CN2CCC1CC2 (configuration not stated),"activity, negative = inhibition",at 107 µM (top of the series),inactive: -15.4%
O=P1(Nc2ncccn2)COc2ccccc2OC1,"activity, negative = inhibition",at 107 µM (top of the series),inactive: -0.156%
Nc1cccc([As](=O)(O)c2ccccc2)c1,"activity, negative = inhibition",at 107 µM (top of the series),inactive: -10.5%
NS(=O)(=O)c1cccc(NC(=O)COC(=O)C(O)(c2ccccc2)c2ccccc2)c1,"activity, negative = inhibition",at 107 µM (top of the series),inactive: 0.137%
O=P1(Nc2ccc(Br)cn2)COc2ccccc2OC1,"activity, negative = inhibition",at 107 µM (top of the series),inactive: -9.31%
O=[As](O)(c1cccs1)c1cccs1,"activity, negative = inhibition",at 107 µM (top of the series),inactive: 10.9%
Cc1ccc(OCC(=O)OC2CN3CCC2CC3)cc1 (configuration not stated),"activity, negative = inhibition",at 107 µM (top of the series),inactive: 5.34%
